# Values of other authors, collected in publication PMC7939532 (Oncotarget, 2021).
# Amino acid sequences for entries named in this document (tags omitted).
# UniProt Q92847, whole entry, species assumed: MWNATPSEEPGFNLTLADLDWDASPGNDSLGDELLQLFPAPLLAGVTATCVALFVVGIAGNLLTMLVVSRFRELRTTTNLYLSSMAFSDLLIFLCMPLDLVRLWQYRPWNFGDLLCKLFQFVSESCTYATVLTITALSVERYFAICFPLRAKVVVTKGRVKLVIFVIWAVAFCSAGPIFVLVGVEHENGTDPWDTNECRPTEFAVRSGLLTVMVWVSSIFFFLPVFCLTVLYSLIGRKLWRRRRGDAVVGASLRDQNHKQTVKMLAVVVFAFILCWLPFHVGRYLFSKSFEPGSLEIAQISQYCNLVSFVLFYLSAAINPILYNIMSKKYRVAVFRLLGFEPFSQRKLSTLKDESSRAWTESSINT
# Target: Ghrelin receptor (Homo sapiens, UniProt Q92847)
# Set-up: expressed in transfected cells; host or cells: COS-7
# Settings: first inverse agonist chelate, previously developed; cited from earlier work
substance,measurement,value
"[^natGa]Ga-NODAGA-KwFwLL-NH2 (KWFWLL) [compound 1, first inverse agonist chelate, earlier work of the group; ^68Ga form in b7]",pEC50,6.20

# pEC50: −log10 of the molar value.
